Values of other authors, collected in patent publication US10201528B2, “Method of treating multiple sclerosis” (Assistance Publique Hopitaux De Paris, priority 2012, dated 2019).

System: multiple sclerosis
Details: attacks less numerous and less severe, improvement of lesions visible by MRI; cited from earlier work

B1: Interferon beta: interferon treatment for remitting MS (protein, UniProt P01574 22-187, looked up)
Interferon beta: MSYNLLGFLQRSSNFQCQKLLWQLNGRLEYCLKDRMNFDIPEEIKQLQQFQKEDAALTIYEMLQNIFAIFRQDSSSTGWNETIVENLLANVYHQINHLKTVLEEKLEKEDFTRGKLMSSLHLKRYYGRILHYLKAKEYSHCAWTIVRVEILRNFYFINRLTGYLRN
- efficacy in multiple sclerosis: proven to be effective
